Measured values as given in PubChem BioAssay AID463210 (The Scripps Research Institute Molecular Screening Center, 2010).
Only a part is listed here, and it is no random draw. Active and inactive are the calls of the source.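 Rule for the calls: active = percent activation above the screen-wide mean plus 3 SD (cut at about 25% in these data); inactive = the rest.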

By UniProt entry, the sequences of proteins in these tests, tags left out.
UniProt P55210, whole entry D23A/D198A/D206A: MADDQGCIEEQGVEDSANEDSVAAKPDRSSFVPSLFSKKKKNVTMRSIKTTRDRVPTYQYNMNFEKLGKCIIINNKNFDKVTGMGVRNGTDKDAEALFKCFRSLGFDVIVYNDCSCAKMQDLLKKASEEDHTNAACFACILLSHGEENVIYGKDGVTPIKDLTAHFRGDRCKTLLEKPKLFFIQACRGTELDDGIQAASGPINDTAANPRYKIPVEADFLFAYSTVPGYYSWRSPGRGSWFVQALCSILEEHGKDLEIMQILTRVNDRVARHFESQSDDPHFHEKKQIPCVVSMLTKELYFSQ

What follows are compounds tested against Caspase-7 (Homo sapiens) (UniProt P55210) (assay: activation of procaspase-7 enzyme – biochemical, absorbance, HTS, human, counter-screen for procaspase-3 activator project, primary screen (AID 463210)). Conditions: recombinant procaspase-7, Ac-DEVD-pNA absorbance 405 nm; at 8.5 µM; hits give high values; D23A/D198A/D206A triple mutant, cannot self-cleave; scale: DMSO 0, 5 µM enzyme 100.

| Compound | activation |
| --- | --- |
| CCC(=O)N(c1ccccc1)C1(COC)CCN(CCn2nnn(CC)c2=O)CC1 | inactive: -2.41% |
| CCC(=O)N(c1ccccc1)C1(COC)CCN(CCc2cccs2)CC1 | inactive: -13.7% |
